Test results reported in US20230165794A1, “OMEGA FATTY ACIDS-RICH OIL DISPERSION FORMULATIONS” (BIOPLUS LIFE SCIENCES PVT. LTD., priority 2020, published 2023).

System: Caco-2 cells
Assay: Transepithelial electrical resistance (TEER)
Conditions: positive control, 1 μg/mL, 48 h

lipopolysaccharides
change in TEER value in comparison to negative control: significant (p<0.001) decrease
